## scFv variants of Ab-14 (light chain) against a SARS-CoV-2 spike peptide

Target: peptide PDVDLGDISGINAS, taken from heptad repeat 2 (HR2) of SARS-CoV-2 spike.

Each scFv is VH, the linker GGGGSGGGGSGGGGS, VL, as in the parent Ab-14, and differs from it in the CDRs of the light chain only.
VH: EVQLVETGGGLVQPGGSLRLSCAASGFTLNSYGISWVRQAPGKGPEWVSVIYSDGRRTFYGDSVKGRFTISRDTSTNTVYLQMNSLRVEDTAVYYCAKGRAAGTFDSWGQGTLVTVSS
VL: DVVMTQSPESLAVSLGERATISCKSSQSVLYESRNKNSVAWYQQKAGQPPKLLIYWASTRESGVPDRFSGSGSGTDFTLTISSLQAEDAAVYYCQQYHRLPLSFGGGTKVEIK

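Phage display of a naive human antibody library on the peptide gave the parent. Library AAYL50 holds single substitutions and randomly drawn double and triple substitutions in the CDRs. In AlphaSeq, yeast of one mating type display the scFv and yeast of the other type display the target. The frequency of each diploid, read from paired DNA barcodes, reflects how well the two displayed proteins bind. Each replicate has its own calibration line, from reference interactions of the BCL2 family. The assay was run in three technical replicates.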

Variants are written as CDR1, CDR2 and CDR3 of the light chain (limits as in the source). Parent: KSSQSVLYESRNKNSVA, WASTRES, QQYHRLPLS. The read-out is the apparent dissociation constant on a log10 scale (nM): the lower, the stronger. Replicates are averaged; those with no signal do not enter the mean. "n.d." marks a missing value. The strain was present, yet no cells mated with the target were sequenced in that replicate, which points to weak or no binding.

| # | CDR-L1 | CDR-L2 | CDR-L3 | replicates, log10 nM | mean, log10 nM | signal with controls |
|---|---|---|---|---|---|---|
| 1 | KSDQSVLYESRNKNSVM | WASTREK | QQYHRLPLS | n.d. / n.d. / n.d. | n.d. | 1/9 (4.07) |
| 2 | KSFQSVLYESRNKNSVA | WASTRES | QQGHRLNLS | n.d. / 1.99 / n.d. | 1.99 | 0/9 |
| 3 | KSSQSVTYESRNKNSVA | QASTRES | QQYHRLPLY | -0.05 / 0.30 / 0.25 | 0.17 | 2/9 (3.94) |
| 4 | KSSQSVQYESQNKNSVA | WASTRES | QQYHRLPYS | 1.66 / 1.66 / 1.71 | 1.68 | 1/9 (3.62) |
| 5 | FSSQSVLYESRNKNSVA | WASTRES | GQYHRLPLS | n.d. / n.d. / 2.67 | 2.67 | 1/9 (2.50) |
| 6 | KSSQSVLYESRNKDSQA | WQSTRES | QQYHRLPLS | n.d. / n.d. / n.d. | n.d. | 0/9 |
| 7 | KGSQSVLYESRNKNSVA | WDSTRNS | QQYHRLPLS | 2.81 / 3.04 / n.d. | 2.93 | 5/9 (4.30) |
| 8 | KSSQSYLYEARNKNSAA | WASTRES | QQYHRLPLS | n.d. / n.d. / n.d. | n.d. | 4/9 (4.28) |
| 9 | KSSQSVLYESRNKNSVA | WASTRES | QDCHRLPDS | n.d. / n.d. / n.d. | n.d. | 1/9 (2.48) |
| 10 | KSSQSVLYESRNKVSNA | WASTRES | QTYHRLPLS | n.d. / n.d. / n.d. | n.d. | 1/9 (4.14) |
| 11 | KSSQSVLYESRNKPSVA | WASTRTS | QQYHRLALS | n.d. / 3.18 / 3.51 | 3.35 | 0/9 |
| 12 | KSSQCVLYQSRNKNSVA | WASTRES | QQYHRLPLS | 2.51 / 2.43 / 3.15 | 2.70 | 3/9 (4.68) |
| 13 | KSSQSVLYESCNKNSVA | WAMTRYS | QQYHRLPLS | n.d. / 2.61 / n.d. | 2.61 | 0/9 |
| 14 | KSAQSVLYESRNKNSVA | WKSTRES | QQMHRLPLS | n.d. / 3.90 / n.d. | 3.90 | 1/9 (3.70) |
| 15 | KSSQYVLYESRNDNSVA | NASTRES | QQYHRLPLS | 2.02 / 1.98 / 2.00 | 2.00 | 1/9 (4.85) |
| 16 | KSSQSVLYESRNKNGVA | WDSTRES | QQYHRLSLS | 2.67 / 2.60 / 2.82 | 2.70 | 3/9 (4.25) |
| 17 | KSSQSWLYESRNKNMVA | WASTRES | QQYHRHPLS | 1.68 / 1.92 / 2.14 | 1.91 | 0/9 |
| 18 | KSSYSVLYESRNKNSVA | WASWRES | HQYHRLPLS | n.d. / n.d. / n.d. | n.d. | 4/9 (3.74) |
| 19 | KSSQSVLYESRNKNSVA | WASTRYS | QWYHRTPLS | n.d. / 5.36 / n.d. | 5.36 | 4/9 (5.17) |
| 20 | SSSQSVLYFSRNKNSVA | WASTRES | QQYHRPPLS | n.d. / n.d. / n.d. | n.d. | 1/9 (2.85) |
| 21 | KSSQSVMYESRRKNSVA | WASTRES | QQYHILPLS | n.d. / n.d. / n.d. | n.d. | 1/9 (3.30) |
| 22 | KSSQSVLYESRLKNSVA | WAQTRES | IQYHRLPLS | 3.07 / 2.52 / 4.22 | 3.27 | 1/9 (2.75) |
| 23 | GSSQSVLIESRNKQSVA | WASTRES | QQYHRLPLS | 1.88 / 1.91 / 2.16 | 1.98 | 0/9 |
| 24 | KSSQSVLYESRNKNSVA | WASTRES | QDYHRLPLS | 2.93 / 2.79 / 2.99 | 2.90 | 0/9 |
| 25 | KSSQSVLGESRVKNSVA | WASTRES | QQYPRLPLS | n.d. / n.d. / n.d. | n.d. | 1/9 (3.18) |
| 26 | KSSQSVTYISRNKNSVA | WASYRES | QQYHRLPLS | 2.78 / 2.29 / n.d. | 2.53 | 0/9 |
| 27 | KSSQQVLYESDNKNSVA | WASTRES | QQYHRLPTS | n.d. / n.d. / n.d. | n.d. | 2/9 (3.69) |
| 28 | KSSQSELYESRNKDSVA | WASTRES | QQYHRLPFS | n.d. / 3.30 / n.d. | 3.30 | 0/9 |
| 29 | KSSQSVLYGSRNKLSVA | WASTRES | QQYHRLPLS | 2.74 / 2.16 / 2.42 | 2.44 | 1/9 (3.33) |
| 30 | KSSQSVVYESRIKNRVA | WASTRES | QQYHRLPLS | 2.08 / 2.50 / 2.01 | 2.19 | 2/9 (3.40) |
| 31 | KSSQSVLWEQRNKNSVA | WASTRES | QPYHRLPLS | n.d. / n.d. / n.d. | n.d. | 0/9 |
| 32 | MSSQSVLYESRNKNSVA | WASTCES | QQYHRLPLS | 4.01 / 4.95 / n.d. | 4.48 | 2/9 (3.62) |
| 33 | KSSQSVLYESRNKNSVA | HASTRES | QQYHRLPFS | n.d. / 4.58 / n.d. | 4.58 | 0/9 |
| 34 | KSSQSVLIESRNKNVVA | WASTREH | QQYHRLPLS | n.d. / 3.56 / n.d. | 3.56 | 1/9 (4.77) |
| 35 | KSSQSVLYSSRNKNSVW | WASTREV | QQYHRLPLS | n.d. / 3.17 / n.d. | 3.17 | 4/9 (4.09) |
| 36 | ESSQSVLYESRNKNSVV | WASTRES | QQYHRRPLS | n.d. / n.d. / n.d. | n.d. | 1/9 (3.73) |
| 37 | KFSQSVLYESRWKNSVA | WASTREG | QQYHRLPLS | 0.86 / 1.14 / 1.15 | 1.05 | 2/9 (4.09) |
| 38 | KSSQSVLYESRNKNSVA | WASTRES | QQYHDMPLP | 3.67 / n.d. / n.d. | 3.67 | 1/9 (3.42) |
| 39 | KSSNSVLYEGRNKNSVA | WASTRES | QQYHRGPLS | 3.92 / 3.89 / 5.93 | 4.58 | 4/9 (4.70) |
| 40 | KSSQCVLYESRNKNSVA | WASMRES | QQYHRLPAS | 3.63 / 3.08 / 2.71 | 3.14 | 0/9 |
| 41 | KSSQSVLFESRNKNSVA | WASTRES | QQYHRLPLS | 0.60 / 0.79 / 0.84 | 0.74 | 4/9 (4.44) |
| 42 | KSSQSVQYGSRNKNSVA | WASTRES | QQYHRLPQS | 4.66 / 3.95 / 3.78 | 4.13 | 8/9 (4.81) |
| 43 | KSSQSVKDESRNKNSVA | WASTRES | QQYHWLPLS | 1.50 / 1.66 / 1.62 | 1.59 | 0/9 |

The last 2 entries again:

CDR-L1	CDR-L2	CDR-L3	replicates, log10 nM	mean, log10 nM	signal with controls
KSSQSVQYGSRNKNSVA	WASTRES	QQYHRLPQS	4.66 / 3.95 / 3.78	4.13	8/9 (4.81)
KSSQSVKDESRNKNSVA	WASTRES	QQYHWLPLS	1.50 / 1.66 / 1.62	1.59	0/9

For reference, the parent read 0.65 as the reference entry and 1.68 as a member of this library. Empty control strains, which show no peptide, gave a signal in 18% of pairings with library AAYL50; the median was 4.19 and 95% of these signals were weaker than 2.99. No background was subtracted. Also given: how often the same scFv was detected with the empty control strains, with their mean in brackets.

From the AlphaSeq antibody data of Engelhart et al. 2022 (doi:10.1038/s41597-022-01779-4), copy in the FLAb collection.